Earlier results in article PMC7395068, “The evolution of strategies to minimise the risk of human drug-induced liver injury (DILI) in drug discovery and development” (Archives of Toxicology, 2020).

Assays:
human hepatocytes = conditions: cited from earlier work
[1] = in vivo; cited from earlier work
[2] = system: primary human hepatocytes, NIH3T3 fibroblasts, BSEP, CYP3A4; conditions: cited from earlier work
[3] = system: HepG2 C3A spheroid, BSEP, Glu/Gal in HepG2 cells, bioactivation; conditions: cited from earlier work
[4] = system: THLE or HepG2 cells, isolated mitochondria, BSEP; conditions: cited from earlier work

Cl.N [ammonium chloride]
Structural based (HCI) (human hepatocytes): -VE

CCC[C@@H]1C[C@@H](C(=O)N[C@@H]([C@H]2O[C@H](SC)[C@H](O)[C@@H](O)[C@H]2O)[C@H](C)Cl)N(C)C1 [clindamycin]
DILI +VE (5-8), DILI -VE (-4) [1]: +VE

O=P1(N(CCCl)CCCl)NCCCO1 (stereo not drawn) [cyclophosphamide, reference compound]
Combined Assay [2]: -VE

COc1cccc2c1C(=O)c1c(O)c3c(c(O)c1C2=O)C[C@@](O)(C(=O)CO)C[C@@H]3O[C@H]1C[C@H](N)[C@H](O)[C@H](C)O1 [doxorubicin]
Combined Assay [2]: +VE

CCN1C(=O)NC(c2ccccc2)C1=O (stereo not drawn) [ethotion]
Bayesian Machine Learning [3]: -VE

CNCCC(Oc1ccc(C(F)(F)F)cc1)c1ccccc1 (stereo not drawn) [fluoxetine]
Ro2 Hybrid HRM Score [4]: -VE

Nc1nc(O)c2ncn(COC(CO)CO)c2n1 [ganciclovir]
Ro2 Hybrid HRM Score, In vitro Assay [4]: -VE

NC[C@H]1O[C@H](O[C@H]2[C@H](O)[C@@H](O[C@H]3O[C@H](CO)[C@@H](O)[C@H](N)[C@H]3O)[C@H](N)C[C@@H]2N)[C@H](O)[C@@H](O)[C@@H]1O [kanamycin]
Cellular toxicity (3T3 cells) [2]: -VE | Combined Assay [2]: -VE | GSH adduct HML [2]: -VE | Hepatocyte cellular toxicity [2]: -VE | MitoTox 3T3 [2]: -VE | TDI CYP3A4 [2]: -VE | hBSEP inhibition [2]: -VE

CC(CCc1ccccc1)NCC(O)c1ccc(O)c(C(N)=O)c1 (stereo not drawn) [labetalol]
Partition Hybrid HRM Score [4]: +VE | Ro2 Hybrid HRM Score [4]: -VE

CN(Cc1cnc2nc(N)nc(N)c2n1)c1ccc(C(=O)N[C@@H](CCC(=O)O)C(=O)O)cc1 [methotrexate, reference compound]
Combined Assay [2]: -VE

CCN(CC)CCNC(=O)c1cc(Cl)c(N)cc1OC [metoclopramide]
Structural based (HCI), In vitro Assay (human hepatocytes): -VE

Cc1cccc(C)c1OCC(C)N (stereo not drawn) [mexiletine]
Ro2 Hybrid HRM Score [4]: -VE

CN(C)c1ccc(O)c2c1C[C@H]1C[C@H]3[C@H](N(C)C)C(O)=C(C(N)=O)C(=O)[C@@]3(O)C(O)=C1C2=O [minocycline]
Partition Hybrid HRM Score [4]: -VE

Nc1cc(N2CCCCC2)nc(N)[n+]1[O-] [minoxidil]
Partition Hybrid HRM Score [4]: -VE | Ro2 Hybrid HRM Score [4]: -VE | Rule of Two hybrid HRM Score ≥3, Aleo (2019) [4]: -VE

CC(C)(O)c1ccccc1CC[C@@H](SCC1(CC(=O)O)CC1)c1cccc(/C=C/c2ccc3ccc(Cl)cc3n2)c1 [montelukast]
Structural based (HCI) (human hepatocytes): -VE | Ro2 Hybrid HRM Score [4]: +VE

CC(N)C(O)c1ccccc1 (stereo not drawn) [phenylpropanolamine]
Structural based (HCI), In vitro Assay (human hepatocytes): -VE

NC(=O)C1CCN(CCCN2c3ccccc3Sc3ccc(Cl)cc32)CC1 [pipamazine]
DILI +VE (5-8), DILI -VE (-4) [1]: +VE

COc1cc(NC(C)CCCN)c2ncccc2c1 (stereo not drawn) [primaquine]
Cellular toxicity (3T3 cells) [2]: +VE | Combined Assay [2]: -VE | GSH adduct HML [2]: +VE | Hepatocyte cellular toxicity [2]: -VE | MitoTox 3T3 [2]: -VE | TDI CYP3A4 [2]: -VE

C=C[C@H]1C[N@@]2CC[C@H]1C[C@@H]2[C@@H](O)c1ccnc2ccc(OC)cc12 [quinidine]
Structural based (HCI) (human hepatocytes): +VE

C=C[C@H]1C[N@@]2CC[C@H]1C[C@H]2[C@H](O)c1ccnc2ccc(OC)cc12 [quinine]
Structural based (HCI) (human hepatocytes): +VE

CN(CCOc1ccc(CC2SC(=O)NC2=O)cc1)c1ccccn1 (stereo not drawn) [rosiglitazone]
Partition Hybrid HRM Score [4]: +VE | Ro2 Hybrid HRM Score [4]: +VE | Bayesian Machine Learning [3]: +VE

N[C@@H]1[C@H]2CN(c3nc4c(cc3F)c(=O)c(C(=O)O)cn4-c3ccc(F)cc3F)C[C@@H]12 [trovafloxacin]
DILI in vitro assay prediction, Xu (2008) (human hepatocytes): +VE
